The values that follow come from US20220125947A1.

Sequences of proteins named here, by UniProt entry; tags and fusion partners are left off. Residues count along the entry.
UniProt A0JD36, 20-115: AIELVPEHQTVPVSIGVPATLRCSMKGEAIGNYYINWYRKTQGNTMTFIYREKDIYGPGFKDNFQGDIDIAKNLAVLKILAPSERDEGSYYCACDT
UniProt Q99603, 21-122: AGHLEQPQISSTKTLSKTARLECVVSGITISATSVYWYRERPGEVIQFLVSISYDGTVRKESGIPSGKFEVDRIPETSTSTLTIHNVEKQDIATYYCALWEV

Numbering of substitutions follows the chain as printed.

For assay [1], the target named is Vg5/Vd2 TCR on SKW3 cells (UniProt A0JD36). Briefly: flow cytometry, dose-response binding at 37° C. on SKW3 cells expressing Vg5/Vd2. A general note: In flow cytometry, cells or beads pass a laser one at a time.
The target of assay [2] is Vg9/Vd1 TCR on SKW3 cells (UniProt Q99603). Put plainly: flow cytometry, dose-response binding at 37° C. on SKW3 cells expressing Vg9/Vd1.
In assay [3] the target is Vg9/Vd2 TCR on SKW3_4 cells (UniProt Q99603). Put plainly: flow cytometry, dose-response binding at 37° C. on SKW3_4 cells expressing Vg9/Vd2.

B1: VG9B64 (antibody, human IgG1, kappa, V domains shown)
VH: QVQLVESGPTLVKPTQTLTLTCTFSGFSLSISGVSVGWIRQPPGKALEWLALIYWNDDKRYSPSLQSRVTITKDTSKNQVVLTVTNMDSVDTATYYCVHSGQWLEGDAFDIWGQGTMVTVSS
VL: DIVMTQTPLSSPVTLGQPASISCRSSESLVHSDGNTYLSWLQQSPGQPPRLLIYKISNRFSGVPDRFSGSGAGTDFTLKISRVEAEDVGVYYCMQATQFPLTFGGGTKLEIKR
Regarding B1, the Max. Activity (fold over background) in assay [1] amounted to 2.22; in assay [2], 260; in assay [3], 100.

B2: VG9B32 (antibody, human IgG1, kappa, V domains shown)
VH: EVQLVQSGGDLLQPGGSLRLSCAASGFTFSRYAMNWVRQAPGKGLEWVSFISGTGYTVYYADSVKGRFTISRDNAKNSLYLQMNSLRDEDTAVYYCARDQEPGFDYWGQGTLVTVSS
VL: B1 VL with S26G, E27Q, S44R, Q98H, L101F, G105Q
With B2, the values for the Max. Activity (fold over background) in assay [1], in assay [2] and in assay [3] were 2.52, 108 and 40, respectively.
